In patent publication US7396645B1, “Cholestasis signature” (priority 2002, dated 2008):

Test system: livers of rats
Conditions: rat, in vivo

## S=C=Nc1cccc2ccccc12
  bile duct hyperplasia: moderate
